The target in one data set is PI3Kα (Homo sapiens, UniProt P42336). The data set can be described thus: In vitro test of enzyme activity (ADP-Glo lipokinase), PI3K alpha. The conditions noted are these: read-out: PI3Kα IC50, 40 μM ATP, 50 μM PIP2:3PS, 120 min. (ADP-Glo turns the ADP formed in a reaction into a luminescent signal.)
The test system of data set [1] is phosphorylation of PI3K downstream protein Akt in MCF7 cells. The data set is described as follows: In vitro test of cells activity: ELISA of Akt phosphorylation in MCF7 cells. Particulars: read-out: MCF7 Cell IC50, 2 h compound, insulin 10 μg/mL stimulation, pAkt ELISA. On the technique in general: In an ELISA, binding on a coated surface is turned into a signal by an enzyme label.

By UniProt entry, the sequences of proteins in these tests, tags left out. Where a name states a change or a piece, a line headed by the entry shows the natural chain unless it says otherwise.
UniProt P42336, whole entry: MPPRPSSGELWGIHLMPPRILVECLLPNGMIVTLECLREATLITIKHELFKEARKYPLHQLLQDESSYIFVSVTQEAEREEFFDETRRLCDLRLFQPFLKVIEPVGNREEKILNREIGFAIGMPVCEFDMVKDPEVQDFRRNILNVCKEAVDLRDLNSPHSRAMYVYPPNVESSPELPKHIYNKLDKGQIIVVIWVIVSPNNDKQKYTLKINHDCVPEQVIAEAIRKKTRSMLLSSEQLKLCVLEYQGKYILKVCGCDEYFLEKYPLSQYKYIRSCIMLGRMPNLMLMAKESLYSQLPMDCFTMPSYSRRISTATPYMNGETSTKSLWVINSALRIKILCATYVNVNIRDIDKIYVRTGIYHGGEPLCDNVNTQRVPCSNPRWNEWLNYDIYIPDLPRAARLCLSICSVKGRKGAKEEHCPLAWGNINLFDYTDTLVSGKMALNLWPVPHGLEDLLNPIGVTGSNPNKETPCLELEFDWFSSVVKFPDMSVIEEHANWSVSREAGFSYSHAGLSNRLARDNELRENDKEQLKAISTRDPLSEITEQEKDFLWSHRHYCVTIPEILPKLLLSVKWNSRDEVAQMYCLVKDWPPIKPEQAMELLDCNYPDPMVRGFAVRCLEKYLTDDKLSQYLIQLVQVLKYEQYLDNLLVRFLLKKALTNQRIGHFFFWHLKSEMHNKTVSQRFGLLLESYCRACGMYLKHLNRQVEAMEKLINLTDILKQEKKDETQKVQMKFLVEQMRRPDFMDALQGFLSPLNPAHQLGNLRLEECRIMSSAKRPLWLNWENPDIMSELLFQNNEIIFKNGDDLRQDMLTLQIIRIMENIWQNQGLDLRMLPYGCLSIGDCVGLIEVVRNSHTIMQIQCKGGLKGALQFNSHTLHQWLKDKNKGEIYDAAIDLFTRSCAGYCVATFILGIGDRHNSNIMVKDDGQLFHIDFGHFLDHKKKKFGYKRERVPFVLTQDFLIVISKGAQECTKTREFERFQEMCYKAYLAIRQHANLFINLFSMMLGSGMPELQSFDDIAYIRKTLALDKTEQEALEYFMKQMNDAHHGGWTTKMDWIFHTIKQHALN
UniProt P42338, whole entry: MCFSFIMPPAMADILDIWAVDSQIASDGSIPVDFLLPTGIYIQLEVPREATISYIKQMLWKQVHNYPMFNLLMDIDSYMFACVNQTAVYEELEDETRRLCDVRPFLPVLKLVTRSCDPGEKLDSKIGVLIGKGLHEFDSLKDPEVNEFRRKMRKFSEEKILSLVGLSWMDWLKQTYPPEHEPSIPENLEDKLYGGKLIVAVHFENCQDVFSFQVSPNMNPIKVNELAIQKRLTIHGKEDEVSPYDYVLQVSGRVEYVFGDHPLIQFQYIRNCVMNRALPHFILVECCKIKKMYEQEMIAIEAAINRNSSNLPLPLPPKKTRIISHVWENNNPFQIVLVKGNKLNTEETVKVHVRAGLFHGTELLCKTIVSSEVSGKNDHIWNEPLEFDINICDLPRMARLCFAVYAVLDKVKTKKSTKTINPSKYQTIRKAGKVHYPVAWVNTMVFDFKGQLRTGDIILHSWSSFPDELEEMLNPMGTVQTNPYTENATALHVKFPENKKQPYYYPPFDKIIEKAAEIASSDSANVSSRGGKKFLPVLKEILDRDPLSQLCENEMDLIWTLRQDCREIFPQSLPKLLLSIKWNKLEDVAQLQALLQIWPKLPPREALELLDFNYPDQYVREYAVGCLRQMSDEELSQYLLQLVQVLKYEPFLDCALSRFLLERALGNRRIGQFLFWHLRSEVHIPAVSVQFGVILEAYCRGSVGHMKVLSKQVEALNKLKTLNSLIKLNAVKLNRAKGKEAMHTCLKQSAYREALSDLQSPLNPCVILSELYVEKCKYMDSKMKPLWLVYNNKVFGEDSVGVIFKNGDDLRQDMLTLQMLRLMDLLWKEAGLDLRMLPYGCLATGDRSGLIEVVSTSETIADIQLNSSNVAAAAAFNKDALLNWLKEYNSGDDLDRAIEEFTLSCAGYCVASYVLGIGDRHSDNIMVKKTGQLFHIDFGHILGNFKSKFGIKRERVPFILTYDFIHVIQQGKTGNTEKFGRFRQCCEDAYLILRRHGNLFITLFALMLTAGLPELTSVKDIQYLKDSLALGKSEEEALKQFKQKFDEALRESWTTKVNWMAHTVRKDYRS
UniProt P48736, whole entry: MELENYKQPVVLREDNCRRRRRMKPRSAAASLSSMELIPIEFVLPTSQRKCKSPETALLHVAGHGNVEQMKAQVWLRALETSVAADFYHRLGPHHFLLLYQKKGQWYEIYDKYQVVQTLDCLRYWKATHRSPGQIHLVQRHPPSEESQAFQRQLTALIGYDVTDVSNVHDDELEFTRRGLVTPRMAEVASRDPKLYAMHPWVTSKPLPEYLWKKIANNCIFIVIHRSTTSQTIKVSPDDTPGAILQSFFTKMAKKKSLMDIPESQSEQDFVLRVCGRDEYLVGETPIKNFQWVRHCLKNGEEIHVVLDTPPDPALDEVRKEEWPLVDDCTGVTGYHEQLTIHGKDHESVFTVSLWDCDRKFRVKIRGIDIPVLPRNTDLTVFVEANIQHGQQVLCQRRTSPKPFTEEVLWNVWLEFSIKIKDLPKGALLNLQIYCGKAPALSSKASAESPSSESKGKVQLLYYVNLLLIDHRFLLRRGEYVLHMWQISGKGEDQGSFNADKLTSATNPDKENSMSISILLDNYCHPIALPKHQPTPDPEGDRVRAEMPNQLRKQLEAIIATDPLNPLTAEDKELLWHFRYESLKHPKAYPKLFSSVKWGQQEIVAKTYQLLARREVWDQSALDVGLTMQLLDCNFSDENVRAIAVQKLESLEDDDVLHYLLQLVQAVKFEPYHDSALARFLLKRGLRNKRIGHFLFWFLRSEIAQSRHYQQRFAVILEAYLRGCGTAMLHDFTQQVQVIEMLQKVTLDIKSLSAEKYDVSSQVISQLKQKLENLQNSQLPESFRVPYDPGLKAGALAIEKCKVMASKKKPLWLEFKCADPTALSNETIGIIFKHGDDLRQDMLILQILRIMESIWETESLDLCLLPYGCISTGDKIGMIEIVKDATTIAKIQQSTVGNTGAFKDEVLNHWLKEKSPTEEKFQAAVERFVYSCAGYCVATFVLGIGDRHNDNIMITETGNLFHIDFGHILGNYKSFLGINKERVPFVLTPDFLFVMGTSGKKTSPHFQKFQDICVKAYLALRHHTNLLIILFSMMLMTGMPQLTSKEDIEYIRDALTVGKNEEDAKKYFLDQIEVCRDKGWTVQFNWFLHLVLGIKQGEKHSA
UniProt O00329, whole entry: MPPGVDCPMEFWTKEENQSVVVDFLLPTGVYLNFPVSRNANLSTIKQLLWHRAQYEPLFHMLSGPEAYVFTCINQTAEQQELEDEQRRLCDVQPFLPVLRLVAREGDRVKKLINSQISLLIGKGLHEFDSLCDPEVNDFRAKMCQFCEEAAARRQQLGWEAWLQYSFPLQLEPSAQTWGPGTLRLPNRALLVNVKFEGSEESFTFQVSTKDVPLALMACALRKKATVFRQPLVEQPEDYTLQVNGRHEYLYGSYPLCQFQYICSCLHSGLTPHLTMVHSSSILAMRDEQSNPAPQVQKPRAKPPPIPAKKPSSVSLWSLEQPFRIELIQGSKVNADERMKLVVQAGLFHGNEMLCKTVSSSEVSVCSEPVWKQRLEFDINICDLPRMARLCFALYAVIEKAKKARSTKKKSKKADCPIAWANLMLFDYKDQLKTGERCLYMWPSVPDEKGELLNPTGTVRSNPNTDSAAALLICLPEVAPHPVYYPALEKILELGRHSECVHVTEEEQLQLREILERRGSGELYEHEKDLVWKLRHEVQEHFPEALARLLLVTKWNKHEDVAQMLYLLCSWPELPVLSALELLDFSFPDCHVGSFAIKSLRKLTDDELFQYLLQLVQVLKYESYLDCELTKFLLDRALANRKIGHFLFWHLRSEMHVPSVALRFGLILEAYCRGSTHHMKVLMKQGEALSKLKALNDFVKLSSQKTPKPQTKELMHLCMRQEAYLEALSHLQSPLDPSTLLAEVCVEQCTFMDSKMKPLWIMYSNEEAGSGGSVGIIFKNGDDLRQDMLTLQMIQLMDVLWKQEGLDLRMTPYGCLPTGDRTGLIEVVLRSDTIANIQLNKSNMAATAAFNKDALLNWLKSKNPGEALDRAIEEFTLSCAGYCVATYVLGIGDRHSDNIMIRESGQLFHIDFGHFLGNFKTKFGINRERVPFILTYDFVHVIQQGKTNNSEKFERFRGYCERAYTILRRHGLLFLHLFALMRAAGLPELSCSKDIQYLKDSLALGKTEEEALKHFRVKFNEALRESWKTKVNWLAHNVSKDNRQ
UniProt P27986, whole entry partner: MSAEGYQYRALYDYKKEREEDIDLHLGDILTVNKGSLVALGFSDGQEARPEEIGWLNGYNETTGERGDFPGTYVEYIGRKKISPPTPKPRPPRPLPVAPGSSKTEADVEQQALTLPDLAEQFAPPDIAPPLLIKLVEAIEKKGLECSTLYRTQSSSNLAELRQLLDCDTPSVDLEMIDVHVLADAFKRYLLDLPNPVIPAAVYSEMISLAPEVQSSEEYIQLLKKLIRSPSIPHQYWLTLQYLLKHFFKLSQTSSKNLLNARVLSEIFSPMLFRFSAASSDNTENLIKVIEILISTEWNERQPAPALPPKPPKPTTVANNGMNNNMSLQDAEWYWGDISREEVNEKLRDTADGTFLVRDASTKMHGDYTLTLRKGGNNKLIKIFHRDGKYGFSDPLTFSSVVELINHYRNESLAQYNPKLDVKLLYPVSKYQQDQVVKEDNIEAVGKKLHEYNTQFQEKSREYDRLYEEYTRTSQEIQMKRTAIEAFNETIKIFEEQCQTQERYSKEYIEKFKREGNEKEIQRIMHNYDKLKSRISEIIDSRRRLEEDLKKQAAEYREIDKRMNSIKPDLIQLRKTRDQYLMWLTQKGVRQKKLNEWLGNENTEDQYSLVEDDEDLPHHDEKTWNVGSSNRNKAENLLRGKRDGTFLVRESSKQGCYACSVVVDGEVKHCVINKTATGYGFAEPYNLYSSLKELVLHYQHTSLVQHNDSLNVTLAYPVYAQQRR

The nature of data set [2]: In vivo DMPK study in mice after a single administration. More on the design: species or system female Balb/c mice. The conditions noted are these: for Cmax / Oral DNAUC (area under the dose normalization curve): oral, 10 mpk; for F % (oral bioavailability): oral 10 mpk vs intravenous 1 mg/kg.
The target in another data set is PI3Kβ (Homo sapiens, UniProt P42338). The data set is described as follows: In vitro test of enzyme activity (ADP-Glo lipokinase), PI3K beta. The conditions noted are these: read-out: PI3Kβ IC50, 40 μM ATP, 50 μM PIP2:3PS, 120 min.
A further data set addresses PI3Kγ (Homo sapiens, UniProt P48736). The data set is described as follows: In vitro test of enzyme activity (ADP-Glo lipokinase), PI3K gamma. Particulars: read-out: PI3Kγ IC50, 25 μM ATP, 50 μM PIP2:3PS, 120 min.
The target of the next data set is PI3Kδ (Homo sapiens, UniProt O00329). The data set can be described thus: In vitro test of enzyme activity (ADP-Glo lipokinase), PI3K delta. Particulars: read-out: PI3Kδ IC50, 40 μM ATP, 50 μM PIP2:3PS, 120 min.
For data set [3], the system named is human breast cancer BT-474 cells. The data set can be described thus: Subcutaneous xenograft tumor model of human breast cancer BT-474 cells. Particulars: BT-474 xenograft, 30 mpk.
In data set [4] the test system is human ovarian cancer SK-OV-3 cells. The data set can be described thus: Subcutaneous xenograft tumor model of human ovarian cancer SK-OV-3 cells. The conditions noted are these: SK-OV-3 xenograft, 30 mpk. A general note: Xenograft models place foreign cells or tissue in a host animal.

The Cmax is the highest concentration seen after dosing. In the case of `CNC(=O)C(C)Cn1cnc2ccc(-c3cnc(OC)c(NS(=O)(=O)c4cc(C)ccc4F)c3)cc2c1=O` (single isomer, unassigned) [WX173], the IC50 on PI3Kα came out at 1.21 nM; in data set [1] it was 15.7 nM; on PI3Kβ, 146 nM; on PI3Kγ it was 17.4 nM; at PI3Kδ, 10.4 nM. The compound further displayed a Cmax in data set [2] of 26.3 µM. The “Oral DNAUC (area under the dose normalization curve)” value in data set [2] turned out to be 4703 nM · h/mpk.
For `CNC(=O)C(C)Cn1cnc2ccc(-c3cnc(OC)c(NS(=O)(=O)c4ccccc4Cl)c3)cc2c1=O` (single isomer, unassigned) [WX147], the IC50 at PI3Kα turned out to be 1.6 nM; in data set [1], 19.1 nM; at PI3Kβ, 222 nM; at PI3Kγ, 15.8 nM; on PI3Kδ, 8.7 nM. In data set [2], this compound displayed a Cmax of 19.9 µM. Moreover, the “Oral DNAUC (area under the dose normalization curve)” value in data set [2] came to 1947 nM · h/mpk.
In data set [3], `CNC(=O)C(C)Cn1cnc2ccc(-c3cnc(OC)c(NS(=O)(=O)c4ccc(F)cc4F)c3)cc2c1=O` (single isomer, unassigned) [WX089] gave a TGI % of 77.6%. Moreover, in data set [2], the maximum concentration (Cmax) was found to be 20.3 µM and the “Oral DNAUC (area under the dose normalization curve)” value is listed as 3477 nM · h/mpk.
For `CNC(=O)[C@H]1C[C@H](n2cnc3ccc(-c4cnc(OC)c(NS(=O)(=O)c5ccc(F)cc5Cl)c4)cc3c2=O)C1`, the IC50 on PI3Kα is 1.04 nM; in data set [1] it was 10.8 nM; on PI3Kβ it was 36.4 nM; at PI3Kγ, 3.06 nM; at PI3Kδ, 0.94 nM. Further, the Cmax in data set [2] was 5.12 µM. The “Oral DNAUC (area under the dose normalization curve)” value in data set [2] is listed as 18467 nM · h/mpk.
As for `CNC(=O)C(C)Cn1cnc2ccc(-c3cnc(OC)c(NS(=O)(=O)c4cccc(C)c4Cl)c3)cc2c1=O` (single isomer, unassigned), the IC50 came to 1.8 nM on PI3Kα; 27.1 nM in data set [1]; 345 nM on PI3Kβ; 16.7 nM on PI3Kγ; 17.3 nM on PI3Kδ. In addition, the Cmax in data set [2] came out at 8.52 µM. Moreover, the “Oral DNAUC (area under the dose normalization curve)” value in data set [2] came to 1070 nM · h/mpk.
As for `CNC(=O)C(Cn1cnc2ccc(-c3cnc(OC)c(NS(=O)(=O)c4ccc(F)cc4Cl)c3)cc2c1=O)OC` (single isomer, unassigned) [WX047], the IC50 amounted to 2.67 nM on PI3Kα; 7.85 nM in data set [1]; 118 nM at PI3Kβ; 16.1 nM on PI3Kγ; 7.37 nM at PI3Kδ. In data set [2] (10 mg/kg), the peak concentration (Cmax) worked out at 14.1 µM. Besides, the “Oral DNAUC (area under the dose normalization curve)” value in data set [2] (10 mg/kg) turned out to be 1540 nM · h/mpk.
Consider `CNC(=O)C(C)Cn1cnc2ccc(-c3cnc(OC)c(NS(=O)(=O)c4ccccc4C(F)(F)F)c3)cc2c1=O` (single isomer, unassigned) [WX099], for which the IC50 on PI3Kα amounted to 1.67 nM; in data set [1], 132 nM; at PI3Kβ it was 323 nM; on PI3Kγ, 19.3 nM; at PI3Kδ, 12.4 nM. For the same compound, the “Cl (clearance rate)” value in data set [2] (intravenous 1 mg/kg) was 13.2 mL/min/kg. In addition, the “Intravenous injection T1/2” value in data set [2] (intravenous 1 mg/kg) was 18.3 min. Besides, the “Vd (apparent volume of distribution)” value in data set [2] (intravenous 1 mg/kg) turned out to be 0.280 L/kg. The “F % (oral bioavailability)” value in data set [2] came out at 36.4%. Besides, the Cmax in data set [2] is 6.67 µM. Also, the “Oral DNAUC (area under the dose normalization curve)” value in data set [2] stood at 791 nM · h/mpk.
`CNC(=O)[C@H]1C[C@@H](n2cnc3ccc(-c4cnc(OC)c(NS(=O)(=O)c5ccc(F)cc5Cl)c4)cc3c2=O)C1`: the IC50 is 2.44 nM at PI3Kα; 24.4 nM in data set [1]; 42.1 nM at PI3Kβ; 7.93 nM at PI3Kγ; 1.44 nM on PI3Kδ. In data set [2], this compound registered a peak concentration (Cmax) of 1.74 µM. In data set [2], the “Oral DNAUC (area under the dose normalization curve)” value was 3687 nM · h/mpk.
As for `CNC(=O)C(Cn1cnc2ccc(-c3cnc(OC)c(NS(=O)(=O)c4ccc(F)cc4Cl)c3)cc2c1=O)OC` (single isomer, unassigned) [WX046], the IC50 was 1.99 nM on PI3Kα; 26.6 nM in data set [1]; 96.7 nM on PI3Kβ; 9.33 nM on PI3Kγ; 2.75 nM at PI3Kδ. The compound also had a maximum concentration (Cmax) in data set [2] (10 mg/kg) of 14.9 µM. Further, the “Oral DNAUC (area under the dose normalization curve)” value in data set [2] (10 mg/kg) is reported as 1504 nM · h/mpk.
As to `CNC(=O)C(C)Cn1cnc2ccc(-c3cnc(OC)c(NS(=O)(=O)c4ccc(F)cc4Cl)c3)cc2c1=O` (single isomer, unassigned) [WX031], the TGI % in data set [3] is 82.3%; in data set [4], 86.0%. Further, the “Cl (clearance rate)” value in data set [2] (intravenous 1 mg/kg) was found to be 4.16 mL/min/kg. Also, the “Vd (apparent volume of distribution)” value in data set [2] (intravenous 1 mg/kg) worked out at 0.179 L/kg. In data set [2], the “F % (oral bioavailability)” value was 59.4%. The “Oral DNAUC (area under the dose normalization curve)” value in data set [2] stood at 4228 nM · h/mpk. In addition, the IC50 on PI3Kβ was 271 nM; on PI3Kγ it was 13.8 nM; at PI3Kδ, 13.9 nM.
On to `COc1ncc(-c2ccc3ncn(CC(C)C(N)=O)c(=O)c3c2)cc1NS(=O)(=O)c1ccc(F)cc1Cl` (single isomer, unassigned) [WX019], for which the IC50 on PI3Kα was 2.75 nM; in data set [1], 23.9 nM; on PI3Kβ, 116 nM; at PI3Kγ, 8.18 nM; at PI3Kδ it was 9.22 nM. Further, the Cmax in data set [2] (10 mg/kg) stood at 3.8 µM. The “Oral DNAUC (area under the dose normalization curve)” value in data set [2] (10 mg/kg) stood at 1386 nM · h/mpk.
With `CNC(=O)C(C)Cn1cnc2ccc(-c3cnc(OC)c(NS(=O)(=O)c4cc(C)ccc4C)c3)cc2c1=O` (single isomer, unassigned) [WX170], the IC50 turned out to be 3.14 nM on PI3Kα; 1.2 nM in data set [1]; 668 nM at PI3Kβ; 66.1 nM at PI3Kγ; 29.6 nM at PI3Kδ. Further, the peak concentration (Cmax) in data set [2] is 10.9 µM. The “Oral DNAUC (area under the dose normalization curve)” value in data set [2] came to 885.0 nM · h/mpk.

The values above are taken from patent US20200317660A1, “Quinazolinone Compound and Application Thereof” (LUOXIN PHARMACEUTICAL (SHANGHAI) CO., LTD., priority 2017, published 2020).
